In patent US20050070006A1 (priority 2001, published 2005):
Where two headings read alike, the source gives them in different places. Marks after values point to notes of the source that are not given here.

Chains of the proteins cited; added tags and fusions are not shown. Lines headed by an entry give the natural chain unless they say otherwise; changes in a name come on top.
UniProt P04483: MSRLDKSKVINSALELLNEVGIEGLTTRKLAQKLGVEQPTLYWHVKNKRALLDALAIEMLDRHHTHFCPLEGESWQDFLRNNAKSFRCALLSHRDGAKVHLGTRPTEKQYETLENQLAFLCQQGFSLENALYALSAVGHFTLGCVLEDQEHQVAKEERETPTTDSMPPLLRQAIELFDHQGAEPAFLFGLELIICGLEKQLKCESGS

Experiments:
[1] = system: strain 3S (base substitution); conditions: short-term test, selection 6 hours
[2] = system: strain 3S (base substitution); experiment: Long-term test and detection via colour change (Bromocresol Red)
[3] = system: strain 3Smuc (base substitution); experiment: Long-term test and detection via colour change (β-lactamase activity, nitrocefin)
[4] = system: strain 3S (base substitution); experiment: Long-term mutation test (selection phase 16 hours), luminometric β-galactosidase reporter; conditions: selection 16 hours
Tet repressor = Tet repressor (Escherichia coli, UniProt P04483); conditions: relative to tetracyclin; Degenkolb et al. 1991; cited from earlier work

Substance: N-Methyl-N-nitro-N-nitrosoguanidine
- Mutation induction (factor) ([1]; 0.625 μg/ml): 1.1 factor
- Relative luminescence units (rlu) ([1]; 0.625 μg/ml): 5766 rlu
- Mutation induction (factor) ([1]; 1.25 μg/ml): 1.1 factor
- Relative luminescence units (rlu) ([1]; 1.25 μg/ml): 5869 rlu
- Mutation induction (factor) ([1]; 2.5 μg/ml): 2.3 factor
- Relative luminescence units (rlu) ([1]; 2.5 μg/ml): 12564 rlu
- Mutation induction (factor) ([1]; 5 μg/ml): 10 factor
- Relative luminescence units (rlu) ([1]; 5 μg/ml): 57071 rlu
- Mutation induction (factor) ([1]; 10 μg/ml): 29 factor
- Relative luminescence units (rlu) ([1]; 10 μg/ml): 159775 rlu
- % of positive wells ([2]; 0.12 μg/ml): 12.5%
- Mutation induction (factor) ([2]; 0.12 μg/ml): 4.5 factor
- % of positive wells ([2]; 0.25 μg/ml): 69%
- Mutation induction (factor) ([2]; 0.25 μg/ml): 24.6 factor
- % of positive wells ([2]; 0.5 μg/ml): 75%
- Mutation induction (factor) ([2]; 0.5 μg/ml): 26.8 factor
- % of positive wells ([2]; 1.2 μg/ml): 93%
- Mutation induction (factor) ([2]; 1.2 μg/ml): 33.2 factor
- % of positive wells ([2]; 2.4 μg/ml): 100%
- Mutation induction (factor) ([2]; 2.4 μg/ml): 35.7 factor
- % of positive wells ([2]; 4.8 μg/ml): 99%
- Mutation induction (factor) ([2]; 4.8 μg/ml): 35.4 factor
- Mutation induction (factor) ([2]; 9.6 μg/ml): 5.5 factor
- % of positive wells ([2]; 9.6 μg/ml, drop due to cytotoxicity): 15.3* %
- Mutation induction (factor) ([2]; 19.2 μg/ml): 0.75 factor
- % of positive wells ([2]; 19.2 μg/ml, drop due to cytotoxicity): 2.1* %
- % of positive wells ([3]; 0.03 μg/ml): 1%
- Mutation induction (factor) ([3]; 0.03 μg/ml): 1 factor
- % of positive wells ([3]; 0.06 μg/ml): 1%
- Mutation induction (factor) ([3]; 0.06 μg/ml): 1 factor
- % of positive wells ([3]; 0.13 μg/ml): 22%
- Mutation induction (factor) ([3]; 0.13 μg/ml): 22 factor
- % of positive wells ([3]; 0.25 μg/ml): 48%
- Mutation induction (factor) ([3]; 0.25 μg/ml): 48 factor
- % of positive wells ([3]; 0.5 μg/ml): 48%
- Mutation induction (factor) ([3]; 0.5 μg/ml): 48 factor
- % of positive wells ([3]; 1 μg/ml): 48%
- Mutation induction (factor) ([3]; 1 μg/ml): 48 factor
- % of positive wells ([3]; 2 μg/ml): 47%
- Mutation induction (factor) ([3]; 2 μg/ml): 47 factor
- Mutation induction (factor) ([4]; 0.125 μg/ml): 2.9 factor
- Relative luminescence units (rlu) ([4]; 0.125 μg/ml): 14369 rlu
- Mutation induction (factor) ([4]; 0.25 μg/ml): 21.3 factor
- Relative luminescence units (rlu) ([4]; 0.25 μg/ml): 104568 rlu
- Mutation induction (factor) ([4]; 0.5 μg/ml): 37 factor
- Relative luminescence units (rlu) ([4]; 0.5 μg/ml): 181601 rlu
- Mutation induction (factor) ([4]; 1 μg/ml): 80.5 factor
- Relative luminescence units (rlu) ([4]; 1 μg/ml): 395235 rlu
- Mutation induction (factor) ([4]; 2 μg/ml): 105 factor
- Relative luminescence units (rlu) ([4]; 2 μg/ml): 516442 rlu

Substance: anhydrotetracyclin
- binds to the Tet repressor more strongly (compared with tetracyclin) (Tet repressor): approximately 35 times
